Laboratory results as given in ChEMBL document CHEMBL4052757, “Bistacrines as potential antitrypanosomal agents” (Bioorg Med Chem, 2017).

System: J774.1
Assay: Cytotoxicity against mouse J774.1 cells after 24 hrs by alamar blue assay
Assay type: cell-based

| SMILES | IC50 |
| --- | --- |
| c1ccc2c(NCCNc3c4c(nc5ccccc35)CCCC4)c3c(nc2c1)CCCC3 | 45.2 µM |
| c1ccc2c(NCCCCCCCCCNc3c4c(nc5ccccc35)CCCC4)c3c(nc2c1)CCCC3 | 1.8 µM |
| c1ccc2c(NCCCCNc3c4c(nc5ccccc35)CCCC4)c3c(nc2c1)CCCC3 | 8.3 µM |
| c1ccc2c(NCCCNc3c4c(nc5ccccc35)CCCC4)c3c(nc2c1)CCCC3 | 42.6 µM |
